Results on one compound are retold here after US20210002231A1 (Centre National de la Recherche Scientifique, priority 2018, published 2021).

The chains behind the UniProt entries cited, without tags or fusion partners. Where a name states a change or a piece, a line headed by the entry shows the natural chain unless it says otherwise.
UniProt Q9GZQ6: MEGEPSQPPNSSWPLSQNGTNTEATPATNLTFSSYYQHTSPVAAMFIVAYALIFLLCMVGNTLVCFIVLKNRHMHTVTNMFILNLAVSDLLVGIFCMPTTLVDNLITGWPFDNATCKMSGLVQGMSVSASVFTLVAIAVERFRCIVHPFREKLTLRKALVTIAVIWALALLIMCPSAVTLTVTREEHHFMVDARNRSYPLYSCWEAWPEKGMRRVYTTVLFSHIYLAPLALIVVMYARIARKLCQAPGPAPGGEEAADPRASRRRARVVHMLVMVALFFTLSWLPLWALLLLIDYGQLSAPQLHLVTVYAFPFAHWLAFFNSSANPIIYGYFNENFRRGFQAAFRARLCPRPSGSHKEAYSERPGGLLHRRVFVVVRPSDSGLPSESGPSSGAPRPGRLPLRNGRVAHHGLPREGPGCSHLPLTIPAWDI

This assay has as its target human NPFF1R (Homo sapiens, UniProt Q9GZQ6). As to the kind of experiment: Radioligand competition binding with [125I]-1-DMe-NPFF. The arrangement: expressed in transfected cells; HEK293-Glo20F cells (cAMP). (Displacement assays read how much labelled ligand stays bound in the presence of the test substance.)

Usually Ki stands for the equilibrium dissociation constant of an inhibitor or competing ligand from its target.

The compound `Cc1cc(O)cc(C)c1C[C@H](N)C(=O)N[C@H](CCCNC(=N)N)C(=O)N[C@H]1Cc2ccccc2CN(CCC(=O)N[C@@H](CCCN2CCCCC2)C(=O)N[C@@H](Cc2ccccc2)C(N)=O)C1=O` [KGFF08, H-Dmt-D-Arg-Aba-β-Ala-Apa-Phe-NH2] returned an inhibitory constant (Ki) of 136 ± 26 nM.
